This assay deals with AP2-associated protein kinase 1 (Homo sapiens, UniProt Q2M2I8). Description: Inhibition of bacterially expressed GST-Xa-tagged human AAK1 using 5-FAM-labelled Aha-KEEQSQITSQVTGQIGWR-NH2 peptide as substrate incubated for 3 hrs in presence of ATP by electrophoretic analysis.

Sequences of proteins named here, by UniProt entry; tags and fusion partners are left off. A change or cut given only in a name is not applied to a line headed by its entry.
UniProt Q2M2I8: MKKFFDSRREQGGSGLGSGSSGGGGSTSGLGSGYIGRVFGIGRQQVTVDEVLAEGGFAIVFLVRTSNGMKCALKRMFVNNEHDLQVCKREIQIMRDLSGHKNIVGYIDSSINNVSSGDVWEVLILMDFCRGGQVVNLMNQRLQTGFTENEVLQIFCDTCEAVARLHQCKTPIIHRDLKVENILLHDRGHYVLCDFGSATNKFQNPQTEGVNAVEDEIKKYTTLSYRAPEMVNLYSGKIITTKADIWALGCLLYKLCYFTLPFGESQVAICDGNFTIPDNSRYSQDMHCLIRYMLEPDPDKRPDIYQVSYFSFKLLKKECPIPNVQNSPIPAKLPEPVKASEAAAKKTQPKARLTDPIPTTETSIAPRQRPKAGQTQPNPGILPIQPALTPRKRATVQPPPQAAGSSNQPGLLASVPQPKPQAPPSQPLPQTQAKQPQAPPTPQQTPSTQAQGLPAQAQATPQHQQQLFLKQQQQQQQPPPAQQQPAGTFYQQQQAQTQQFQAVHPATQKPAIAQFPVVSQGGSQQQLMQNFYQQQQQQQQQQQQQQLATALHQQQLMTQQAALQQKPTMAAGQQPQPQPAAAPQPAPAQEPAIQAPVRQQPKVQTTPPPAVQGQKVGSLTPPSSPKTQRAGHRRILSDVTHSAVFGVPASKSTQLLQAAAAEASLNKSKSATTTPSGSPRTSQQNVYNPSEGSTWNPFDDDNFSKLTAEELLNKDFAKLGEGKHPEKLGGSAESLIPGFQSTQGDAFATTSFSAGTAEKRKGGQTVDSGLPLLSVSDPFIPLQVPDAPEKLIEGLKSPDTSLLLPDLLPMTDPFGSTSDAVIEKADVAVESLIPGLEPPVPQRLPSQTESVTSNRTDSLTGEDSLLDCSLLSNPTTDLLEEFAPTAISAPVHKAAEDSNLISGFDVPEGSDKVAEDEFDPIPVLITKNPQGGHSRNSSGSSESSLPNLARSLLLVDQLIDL

These results are taken from ChEMBL document CHEMBL5154787 (J Med Chem, 2022).

By IC50 is commonly meant the concentration that gives 50% inhibition. In the case of `CC(C)C[C@](C)(N)COc1cnc(-c2ccnc(Cl)c2)cc1Cl`, the IC50 was 2.3 nM.
